Literature values as cited in paper PMC9373814, “3p-C-NETA: A versatile and effective chelator for development of Al^18F-labeled and therapeutic radiopharmaceuticals” (Theranostics, 2022).

Details: rat plasma, 30 min p.i.; cited from earlier work

[^18F]AlF-NOTA-Octreotide
intact tracer in plasma: > 98%
